# Measurements taken from US6391882B1, “4,5,6 and 7-indole and indoline derivatitives, their preparation and use” (H. Lundbeck A/S, priority 1998, dated 2002).
# Chains of the proteins cited; added tags and fusions are not shown.
# UniProt P31652, whole entry: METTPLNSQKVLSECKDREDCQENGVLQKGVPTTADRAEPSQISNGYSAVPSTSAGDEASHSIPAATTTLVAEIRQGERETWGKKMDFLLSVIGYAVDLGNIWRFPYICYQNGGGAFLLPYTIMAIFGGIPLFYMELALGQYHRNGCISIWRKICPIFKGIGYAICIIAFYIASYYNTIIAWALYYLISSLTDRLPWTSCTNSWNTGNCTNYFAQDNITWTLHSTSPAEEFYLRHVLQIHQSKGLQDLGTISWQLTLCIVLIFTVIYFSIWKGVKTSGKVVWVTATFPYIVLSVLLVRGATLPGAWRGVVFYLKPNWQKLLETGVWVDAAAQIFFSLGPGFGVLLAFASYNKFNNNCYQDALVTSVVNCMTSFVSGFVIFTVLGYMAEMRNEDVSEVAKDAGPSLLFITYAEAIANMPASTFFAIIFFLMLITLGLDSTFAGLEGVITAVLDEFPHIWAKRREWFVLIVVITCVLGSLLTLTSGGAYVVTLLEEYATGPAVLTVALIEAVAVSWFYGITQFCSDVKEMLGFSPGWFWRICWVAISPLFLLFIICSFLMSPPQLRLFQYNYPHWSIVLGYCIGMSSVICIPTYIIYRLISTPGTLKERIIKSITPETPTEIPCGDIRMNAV
# Target: T1, Serotonin reuptake (whole rat brain synaptosomes) (Rattus norvegicus, UniProt P31652)
# T1 construct: from tissue; host or cells: whole rat brain synaptosomes
# Assay: Inhibition of 3H-5-HT uptake into rat brain synaptosomes
# Assay type: biochemical
# Experimental: Inhibition of ^3H-5-HT Uptake Into Rat Brain Synaptosomes
# Using this method the ability of drugs to inhibit the accumulation of ^3H-5-HT into whole rat brain synaptosomes is determined in vitro.
smiles,measurement,value
"Fc1ccc([C@@H]2CCNC[C@H]2COc2ccc3c(c2)OCO3)cc1 [Paroxetine, reference compound]",IC50,0.29 nM
